Source: patent US20140221346A1, “THERAPEUTIC COMPOUNDS” (Gilead Sciences, Inc., priority 2013, published 2014)

Tested on: HIV-IIIb
Assay: Test A: Antiviral Assay in MT4 Cells
Assay type: cell-based, HIV-1
Conditions: Human immunodeficiency virus 1, IIIB, MT4, 120 h, read-out: % inhibition at 3 μM
Description: For the antiviral assay, 40 μL of 1× test concentration of 3-fold serially diluted compound in culture medium with 10% FBS was added to each well of a 384-well plate (10 concentrations) in quadruplicate. MT-4 cells were next mixed with HIV-IIIb at an m.o.i of 0.003 for 1 hour, after which time 35 μL of virus/cell mixture (2000 cells) was immediately added to each well containing 40 μL of diluted compound. The plates were then incubated at 37° C. for 5 days. After 5 days of incubation, 25 μl of 2× concentrated CellTiter-Glo™ Reagent (catalog #G7571, Promega Biosciences, Inc., Madison, Wis.) was added to each well containing MT-4 cells. Cell lysis was carried out by incubating at room temperature for 10 min and then chemiluminescence was read.

CC(=O)Oc1ccc(-c2ccc(F)c(C(N)=O)c2)c([C@H](Cc2cc(F)cc(F)c2)NC(=O)Cn2nc(C(F)F)c3c2C(F)(F)CCC3(F)F)n1 [Compound 20B, (S)-5-(3-carbamoyl-4-fluorophenyl)-6-(1-(2-(3-(difluoromethyl)-4,4,7,7-tetrafluoro-4,5,6,7-tetrahydro-1H-indazol-1-yl)acetamido)-2-(3,5-difluorophenyl)ethyl)pyridin-2-yl acetate]
inhibition at 3 µM: 1%
